From US20260382588A1, “COMPOUNDS CONTAINING A HYDROXYPHENYL MOIETY AND THEIR USE” (published 2026) come the findings set out here.

Sequences of proteins named here, by UniProt entry; tags and fusion partners are left off. Residues count along the entry.
UniProt O75460, 465-977 limits assumed: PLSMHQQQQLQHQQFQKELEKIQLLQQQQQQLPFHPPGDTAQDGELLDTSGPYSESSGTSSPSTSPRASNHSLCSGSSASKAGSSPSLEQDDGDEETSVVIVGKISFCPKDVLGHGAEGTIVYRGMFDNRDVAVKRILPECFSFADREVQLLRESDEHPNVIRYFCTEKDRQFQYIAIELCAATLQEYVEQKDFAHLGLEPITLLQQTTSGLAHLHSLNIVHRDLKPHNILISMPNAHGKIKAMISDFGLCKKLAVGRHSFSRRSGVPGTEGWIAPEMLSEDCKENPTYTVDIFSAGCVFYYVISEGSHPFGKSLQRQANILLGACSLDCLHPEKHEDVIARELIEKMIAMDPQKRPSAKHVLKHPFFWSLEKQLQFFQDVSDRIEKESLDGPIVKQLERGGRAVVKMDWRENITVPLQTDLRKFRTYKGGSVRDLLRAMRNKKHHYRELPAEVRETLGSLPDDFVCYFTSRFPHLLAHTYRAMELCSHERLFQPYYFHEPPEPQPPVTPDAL

What is called IC50 is the concentration needed to halve the response being measured.

Like-named read-outs stand apart in the source and are kept apart here.

One assay addresses IRE1 (Homo sapiens, UniProt O75460). Kind of assay: IRE1-mediated in vitro RNase assay (FRET-quenched mini Xbp1 RNA probe). The source says: Materials—IRE1 wild-type recombinant protein encoding the cytoplasmic domain (amino acids 465-977) with N-terminal polyhistidine-tag and GST tag was from Sinobiological (Sino Biological Europe GmbH, Eschborn, Germany, #11905-H20B). The fluorescent probe used for the in vitro IRE1 RNase assay was from Eurogentec. Tunicamycin was purchased from Calbiochem (Merck KGaA, Darmstadt, Germany). All the inhibitors were synthesized by and purchased from Enamine (Riga, Latvia).
IRE1-mediated in vitro RNase assay—Organic molecules (Compounds 28 (Z4P), and 33 (Z4), 34 (Z4A), 35 (Z4B), 36 (Z4C), 37 (Z4D) and 38 (Z4E)) were diluted in minimal volume of DMSO and subsequently re-diluted in reaction buffer (20 mM HEPES pH 7.5; 1 mM MgOAc; 50 mM KOAc). Maximum volume of DMSO per reaction never exceeded 1%. Reaction volume was 25 μL. Recombinant IRE1 (0.6 μg/reaction) was incubated at room temperature for 10 minutes with varying concentrations (0-100 μM) of inhibitor and reaction buffer. The assay relied on the use of fluorescence resonance energy transfer (FRET)—quenched mini Xbp1 RNA substrate probe, which when cleaved by IRE1 emits fluorescence at 590 nm (cy3) wavelength (F. Prischi et al., Nature Communications, 2014, 5, 3554). Subsequently equal volume of mixture of reaction buffer, 20 mM ATP, 2 mM DTT and 1 μg of fluorescent probe were added to each sample and fluorescence was read in 96 well plates flat bottom, black polystyrene, matrix active group High Bind (Corning®) every minute for 25 minutes, at 37 °C, using a Tecan 200 plate reader.

Another assay has as its system U87 cells. Kind of assay: TMZ sensitivity (cell viability, WST1) assay in U87 cells. Conditions: for TMZ toxicity in U87 cells: increasing concentrations of compound upon TMZ treatment (FIG. 3); for sensitization of cells to TMZ: sub-toxic dose of compound plus escalating TMZ, 6 days (FIGS. 2D and 3). The method, then:
Cell culture and treatments—U87MG (U87; ATCC) cells were authenticated as recommended by AACR (http://aacrjoumals.org/content/cell-line-authentication-information) and regularly tested for the absence of mycoplasma using MycoAlert® (Lonza, Basel, Switzerland) or MycoFluor (Invitrogen, Carlsbad, CA, USA). U87 were grown in DMEM Glutamax (Invitrogen, Carlsbad, CA, USA) supplemented with 10% FBS. GB immortalized U251 and primary RADH87 (T. Avril et al., Brain Pathol., 2012, 22, 159-174) cells were grown in DMEM supplemented with 10% FBS in a 5% C02 humidified atmosphere at 37 °C. GB cell lines were modified for IRE1 activity by overexpressing dominant negative (DN) forms of IRE1 that lack the RNase domain (IRE1.NCK or IRE1 Q780stop) as previously described (S. Lhomond et al., EMBO Molecular Medicine, 2018, 10, e7929; J. Obacz et al., bioRxiv, 2020, 533018). For XBP1s induction experiments, tunicamycin was used at 1 μg/mL for the indicated periods of time. For inhibitor cell toxicity assays cells were plated in 96 well plates at 5000 cells per well and treated with 0, 5, 10, 25, 50, 100, 250, 500, 1000 and 2500 μM concentrations of each inhibitor. After 6 days of incubation, WST1 reagent (Roche) was added to each well and post 2-hour incubation the plate was read using a Tecan 200 colorimeter. For TMZ sensitivity assays cells were plated in a 96 well plate at 5000 cells per well and co-treated with 0, 5, 10, 25, 50, 100, 250, 500, 1000 and 2500 μM of TMZ plus a non-toxic dose of inhibitor. After 6 days of incubation, WST1 reagent (Roche) was added to each well and post 2-hour incubation the plate was read using a Tecan 200 colorimeter.
The effect of compounds 28 (Z4P) and 33 (Z4) on RIDD was then tested by interrogating the levels of the known RIDD target Sparc mRNA (46) in U87 cells upon treatment with the transcriptional blocker actinomycin D and the ER stressor tunicamycin. Both compound 33 (Z4) and 28 (Z4P) blocked tunicamycin-induced degradation of Sparc mRNA compared to control treatment (FIG. 2C) whilst had no effect on Sparc mRNA in cells overexpressing a dominant negative (DN) form of IRE1 (data not shown). The specificity of these compounds in the context of the other arms of the UPR, PERK in particular, was then investigated. This was done to ensure that the stress responses related to compounds 28 (Z4P) and 33 (Z4) were wholly due to their action on IRE1 rather than other UPR transducers. The expression of downstream effectors of PERK and ATF6 was evaluated. […] This was also confirmed at the level of eIF2α phosphorylation and ATF4 protein expression which were not altered upon exposure to compound 33 (Z4) (data not shown). […] Consequently, to further document the characteristics of compound 33 (Z4) at the protein level, U251 (commonly available GB cell line) and RADH87 (G. Auf et al., Proc Natl Acad Sci USA, 2010, 107, 15553-15558) (human tumor-derived primary GB cell line) cells were treated and their proteome were evaluated. Treatment of U251 and RADH87 cells with compound 33 (Z4) impacted on particular pathways such as cell adhesion, circulatory system development, cell locomotion and cell migration; all properties involved in tumor establishment (e.g. angiogenesis) and tumor invasion (e.g. metastasis) (data not shown). The proteomes of these GB lines exposed to compound 33 (Z4) was then functionally compared to those of the same cell lines in which IRE1 activity was invalidated genetically either using a dominant negative construct reported previously (B. Drogat, et al., Cancer Res., 2007, 67, 6700-6707) or a truncated mutant variant of IRE1 lacking an RNase domain (Q780stop) (S. Lhomond, et al., EMBO Molecular Medicine, 2018, 10, e7929) (data not shown). […] Proteome alterations upon compound 33 (Z4) exposure phenocopied those observed in cells in which IRE1 activity was genetically blunted, thus reinforcing the selectivity of compound 33 (Z4) towards IRE1 (data not shown). […]

Where [1] appears, read: FRET-quenched IRE1 RNA substrate probe, FIG. 1, result in words.

As for `CC(CCc1ccc(O)cc1)NC(=O)C(=O)Nc1cc(C(N)=O)ccc1F` (stereo not shown), the IC50 entry against IRE1 (setting [1]) is given as “low micromolar range”. Further, the “TMZ toxicity in U87 cells” value in the assay on U87 cells is recorded as “enhancement of TMZ toxicity”.
The like results for `Cc1ccc(C(=O)NC2CC2)cc1NC(=O)NC(C)CCc1ccc(O)cc1` (stereo not shown) were, in that order, “low micromolar range” and “enhancement of TMZ toxicity”.
As for `Cc1ccc(C)c(NC(=O)NC(C)CCc2ccc(O)cc2)c1` (racemic), the IC50 result against IRE1 (setting [1]) was “low micromolar range”; on IRE1 (read-out: IC50 (RNase), Table 5), 1090 nM. In addition, the “TMZ toxicity in U87 cells” value in the assay with U87 cells was “enhancement of TMZ toxicity”. Moreover, the “sensitization of cells to TMZ” value in the assay with U87 cells was “about 1.5 fold”.
On to `CNC(=O)c1ccc(C)c(NC(=O)NC(C)CCc2ccc(O)cc2)c1` (stereo not shown), for which the IC50 entry against IRE1 (setting [1]) was “low micromolar range”. Besides, the “TMZ toxicity in U87 cells” value in the assay with U87 cells is on record as “enhancement of TMZ toxicity”.
The like results for `CCNC(=O)c1ccc(C)c(NC(=O)NC(C)CCc2ccc(O)cc2)c1` (stereo not shown) were, in that order, “low micromolar range” and “enhancement of TMZ toxicity”.
Taken in the same sequence, the figures for `CC(CCc1ccc(O)cc1)NC(=O)Nc1cc(C(N)=O)ccc1F` (stereo not shown) were “low micromolar range” and “enhancement of TMZ toxicity”.
For the molecule `Cc1ccc(C(N)=O)cc1NC(=O)NC(C)CCc1ccc(O)cc1` (racemic), at IRE1 (setting [1]), the concentration for half-maximal inhibition (IC50) entry was “low micromolar range”. Further, the “sensitization of cells to TMZ” value in the assay with U87 cells is listed as “about 1.5 fold”.
